This is a selection; strong and weak results do not stand in their true shares. Activity calls are given as the source filed them.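 Rule for the calls: active = activation of at least 60% and not above a set upper limit (about 1 call in 100 departs from these limits); inconclusive = activation of 40% to 60%, or above that upper limit; inactive = activation under 40%.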
target: Probable G-protein coupled receptor 32 (Homo sapiens) (UniProt O75388); experiment: qHTS for Agonists of Human Resolvin D1 Receptor DRV1; conditions: CHO-K1 GPR32 beta-arrestin PathHunter luminescence, 90 min; at 76.9 µM; stronger effect = higher value; zero percent set by DMSO-only wells; note: 0% is about no effect

Sequences of proteins named here, by UniProt entry; tags and fusion partners are left off.
UniProt O75388, whole entry: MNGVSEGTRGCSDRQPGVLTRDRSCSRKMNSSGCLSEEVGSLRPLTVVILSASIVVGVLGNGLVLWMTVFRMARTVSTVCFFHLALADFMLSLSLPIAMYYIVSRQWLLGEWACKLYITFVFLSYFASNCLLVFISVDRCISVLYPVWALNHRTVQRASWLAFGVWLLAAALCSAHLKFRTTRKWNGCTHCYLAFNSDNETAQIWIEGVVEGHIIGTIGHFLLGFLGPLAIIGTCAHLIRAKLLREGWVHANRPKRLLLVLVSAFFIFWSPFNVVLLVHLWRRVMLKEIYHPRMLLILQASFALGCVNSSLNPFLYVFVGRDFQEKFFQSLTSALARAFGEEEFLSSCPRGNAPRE

SMILES | activation
CCC(=O)N(c1ccccc1)C1CCNCC1 | inactive: -14.9%
O=C(NCC1(N2CCOCC2)CCCCC1)c1ccccc1[N+](=O)[O-] | inactive: 4.17%
O=C(NCC1(N2CCOCC2)CCCCC1)c1ccc([N+](=O)[O-])cc1 | inactive: 18%
O=C(NCC1(N2CCOCC2)CCCCC1)c1ccccc1 | inactive: 0.765%
CN(C)C1(CNC(=O)c2ccc(C(C)(C)C)cc2)CCCCC1 | inactive: 16.6%
Cc1ccccc1C(=O)NCC1(N(C)C)CCCCC1 | inactive: -9.56%
CC(C)(C)c1ccc(C(=O)NCC2(N3CCOCC3)CCCCC2)cc1 | inactive: 46.3%
COc1cc(C(=O)NCC2(N3CCOCC3)CCCCC2)cc(OC)c1OC | inactive: 0.057%
CCOC(=O)N1CCC(=O)CC1 | inactive: 0.48%
COc1ccccc1C(=O)NCC1(N2CCOCC2)CCCCC1 | inactive: 27%
O=C(NCC1(N2CCOCC2)CCCCC1)c1ccc(Cl)cc1 | inactive: 7.46%
CCOc1ccc(C(=O)NCC2(N3CCOCC3)CCCCC2)cc1 | inactive: -20.7%
CCCOc1cccc(C(=O)NCC2(N3CCOCC3)CCCCC2)c1 | inactive: -24.7%
CCCCOc1ccccc1C(=O)NCC1(N2CCOCC2)CCCCC1 | inactive: -45.2%
O=C(NCC1(N2CCOCC2)CCCCC1)c1ccccc1Br | inactive: -9.99%

— PubChem BioAssay AID1346428 (National Center for Advancing Translational Sciences (NCATS), 2018)
